{"source": "patent US20080299101A1", "about": "“Cancer Treatment Resistance and Agents Modulating Such Resistance” (CENTRE NATIONAL DE LA RECHERCHE SCIENTIFIQUE (CNRS INSTITUT …, priority 2004, published 2008)", "key": {"HCT116/R1 [1]": {"system": "HCT116/R1", "conditions": "for Cytotoxicity of oxaliplatin* in presence of actD 0.04 nM: actD 0.04 nM preincubation; for Cytotoxicity of oxaliplatin* in presence of actD 0.12 nM: actD 0.12 nM preincubation; for Cytotoxicity of oxaliplatin* in presence of actD 0.36 nM: actD 0.36 nM preincubation", "method": "(§1) Cytotoxicity assays were performed by seeding 4000 cells per well in 96 well plates. […] Cytotoxicity measurements were carried out using the WST-1 colorimetric assay (Boehringer Mannheim) according to the manufacturer's recommendation."}, "HCT116/R2 [2]": {"system": "HCT116/R2"}, "HCT116/S": {"system": "HCT116/S", "conditions": "for Cytotoxicity of oxaliplatin* in presence of actD 0.04 nM: actD 0.04 nM preincubation; for Cytotoxicity of oxaliplatin* in presence of actD 0.12 nM: actD 0.12 nM preincubation; for Cytotoxicity of oxaliplatin* in presence of actD 0.36 nM: actD 0.36 nM preincubation", "method": "as §1"}, "HCT116/R2 [3]": {"system": "HCT116/R2", "conditions": "for Cytotoxicity of oxaliplatin* in presence of actD 0.04 nM: actD 0.04 nM preincubation; for Cytotoxicity of oxaliplatin* in presence of actD 0.12 nM: actD 0.12 nM preincubation; for Cytotoxicity of oxaliplatin* in presence of actD 0.36 nM: actD 0.36 nM preincubation", "method": "as §1"}, "HCT116/R1 [4]": {"system": "HCT116/R1"}}, "note": "Where two headings read alike, the source gives them in different places.", "data": [{"compound": "Cc1c2oc3c(C)ccc(C(=O)N[C@@H]4C(=O)N[C@H](C(C)C)C(=O)N5CCC[C@H]5C(=O)N(C)CC(=O)N(C)[C@@H](C(C)C)C(=O)O[C@@H]4C)c3nc-2c(C(=O)N[C@@H]2C(=O)N[C@H](C(C)C)C(=O)N3CCC[C@H]3C(=O)N(C)CC(=O)N(C)[C@@H](C(C)C)C(=O)O[C@@H]2C)c(N)c1=O", "note": "[actD, actinomycin D]", "values": [{"measurement": "Cytotoxicity of oxali + actD 0.36 nM", "setting": "HCT116/R1 [1]; oxaliplatin 0 μM (actD alone), actD 0.36 nM", "result": 37.3, "unit": "%"}]}, {"compound": "oxaliplatin", "values": [{"measurement": "Oxaliplatin resistance (fold/parental line)", "setting": "SW480/S", "result": 1, "unit": "fold/parental line"}, {"measurement": "Oxaliplatin resistance (fold/parental line)", "setting": "HCT116/R2 [2]", "result": 68, "unit": "fold/parental line"}, {"measurement": "Cytotoxicity of oxaliplatin", "setting": "HCT116/S; oxaliplatin 0.16 μM", "result": 18.5, "unit": "%"}, {"measurement": "Cytotoxicity of oxaliplatin* in presence of actD 0.04 nM", "setting": "HCT116/S; oxaliplatin 0.16 μM", "result": 25.1, "unit": "%"}, {"measurement": "Cytotoxicity of oxaliplatin* in presence of actD 0.12 nM", "setting": "HCT116/S; oxaliplatin 0.16 μM", "result": 34.5, "unit": "%"}, {"measurement": "Cytotoxicity of oxaliplatin* in presence of actD 0.36 nM", "setting": "HCT116/S; oxaliplatin 0.16 μM", "result": 41.9, "unit": "%"}, {"measurement": "Cytotoxicity of oxaliplatin", "setting": "HCT116/S; oxaliplatin 0.31 μM", "result": 40.3, "unit": "%"}, {"measurement": "Cytotoxicity of oxaliplatin* in presence of actD 0.04 nM", "setting": "HCT116/S; oxaliplatin 0.31 μM", "result": 50.7, "unit": "%"}, {"measurement": "Cytotoxicity of oxaliplatin* in presence of actD 0.12 nM", "setting": "HCT116/S; oxaliplatin 0.31 μM", "result": 60.6, "unit": "%"}, {"measurement": "Cytotoxicity of oxaliplatin* in presence of actD 0.36 nM", "setting": "HCT116/S; oxaliplatin 0.31 μM", "result": 42.6, "unit": "%"}, {"measurement": "Cytotoxicity of oxaliplatin", "setting": "HCT116/S; oxaliplatin 0.62 μM", "result": 61.6, "unit": "%"}, {"measurement": "Cytotoxicity of oxaliplatin* in presence of actD 0.04 nM", "setting": "HCT116/S; oxaliplatin 0.62 μM", "result": 72.2, "unit": "%"}, {"measurement": "Cytotoxicity of oxaliplatin* in presence of actD 0.12 nM", "setting": "HCT116/S; oxaliplatin 0.62 μM", "result": 76.8, "unit": "%"}, {"measurement": "Cytotoxicity of oxaliplatin* in presence of actD 0.36 nM", "setting": "HCT116/S; oxaliplatin 0.62 μM", "result": 54.7, "unit": "%"}, {"measurement": "Cytotoxicity of oxaliplatin", "setting": "HCT116/S; oxaliplatin 1.25 μM", "result": 74.4, "unit": "%"}, {"measurement": "Cytotoxicity of oxaliplatin* in presence of actD 0.04 nM", "setting": "HCT116/S; oxaliplatin 1.25 μM", "result": 77.5, "unit": "%"}, {"measurement": "Cytotoxicity of oxaliplatin* in presence of actD 0.12 nM", "setting": "HCT116/S; oxaliplatin 1.25 μM", "result": 80.1, "unit": "%"}, {"measurement": "Cytotoxicity of oxaliplatin* in presence of actD 0.36 nM", "setting": "HCT116/S; oxaliplatin 1.25 μM", "result": 49.3, "unit": "%"}, {"measurement": "Cytotoxicity of oxaliplatin", "setting": "HCT116/S; oxaliplatin 2.5 μM", "result": 76.7, "unit": "%"}, {"measurement": "Cytotoxicity of oxaliplatin* in presence of actD 0.04 nM", "setting": "HCT116/S; oxaliplatin 2.5 μM", "result": 77.3, "unit": "%"}, {"measurement": "Cytotoxicity of oxaliplatin* in presence of actD 0.12 nM", "setting": "HCT116/S; oxaliplatin 2.5 μM", "result": 76.8, "unit": "%"}, {"measurement": "Cytotoxicity of oxaliplatin* in presence of actD 0.36 nM", "setting": "HCT116/S; oxaliplatin 2.5 μM", "result": 35.1, "unit": "%"}, {"measurement": "Cytotoxicity of oxaliplatin", "setting": "HCT116/R2 [3]; oxaliplatin 2.5 μM", "result": 24.7, "unit": "%"}, {"measurement": "Cytotoxicity of oxaliplatin* in presence of actD 0.04 nM", "setting": "HCT116/R2 [3]; oxaliplatin 2.5 μM", "result": 8.3, "unit": "%"}, {"measurement": "Cytotoxicity of oxaliplatin* in presence of actD 0.12 nM", "setting": "HCT116/R2 [3]; oxaliplatin 2.5 μM", "result": 18.1, "unit": "%"}, {"measurement": "Cytotoxicity of oxaliplatin* in presence of actD 0.36 nM", "setting": "HCT116/R2 [3]; oxaliplatin 2.5 μM", "result": 39.8, "unit": "%"}, {"measurement": "Cytotoxicity of oxaliplatin", "setting": "HCT116/R2 [3]; oxaliplatin 5 μM", "result": 31.7, "unit": "%"}, {"measurement": "Cytotoxicity of oxaliplatin* in presence of actD 0.04 nM", "setting": "HCT116/R2 [3]; oxaliplatin 5 μM", "result": 31.2, "unit": "%"}, {"measurement": "Cytotoxicity of oxaliplatin* in presence of actD 0.12 nM", "setting": "HCT116/R2 [3]; oxaliplatin 5 μM", "result": 38.3, "unit": "%"}, {"measurement": "Cytotoxicity of oxaliplatin* in presence of actD 0.36 nM", "setting": "HCT116/R2 [3]; oxaliplatin 5 μM", "result": 57.4, "unit": "%"}, {"measurement": "Cytotoxicity of oxaliplatin", "setting": "HCT116/R2 [3]; oxaliplatin 10 μM", "result": 55.6, "unit": "%"}, {"measurement": "Cytotoxicity of oxaliplatin* in presence of actD 0.04 nM", "setting": "HCT116/R2 [3]; oxaliplatin 10 μM", "result": 57.8, "unit": "%"}, {"measurement": "Cytotoxicity of oxaliplatin* in presence of actD 0.12 nM", "setting": "HCT116/R2 [3]; oxaliplatin 10 μM", "result": 63.4, "unit": "%"}, {"measurement": "Cytotoxicity of oxaliplatin* in presence of actD 0.36 nM", "setting": "HCT116/R2 [3]; oxaliplatin 10 μM", "result": 67.4, "unit": "%"}, {"measurement": "Cytotoxicity of oxaliplatin", "setting": "HCT116/R2 [3]; oxaliplatin 20 μM", "result": 70.4, "unit": "%"}, {"measurement": "Cytotoxicity of oxaliplatin* in presence of actD 0.04 nM", "setting": "HCT116/R2 [3]; oxaliplatin 20 μM", "result": 63.9, "unit": "%"}, {"measurement": "Cytotoxicity of oxaliplatin* in presence of actD 0.12 nM", "setting": "HCT116/R2 [3]; oxaliplatin 20 μM", "result": 67.8, "unit": "%"}, {"measurement": "Cytotoxicity of oxaliplatin* in presence of actD 0.36 nM", "setting": "HCT116/R2 [3]; oxaliplatin 20 μM", "result": 75.6, "unit": "%"}, {"measurement": "Cytotoxicity of oxaliplatin", "setting": "HCT116/R2 [3]; oxaliplatin 40 μM", "result": 74.2, "unit": "%"}, {"measurement": "Cytotoxicity of oxaliplatin* in presence of actD 0.04 nM", "setting": "HCT116/R2 [3]; oxaliplatin 40 μM", "result": 74.6, "unit": "%"}, {"measurement": "Cytotoxicity of oxaliplatin* in presence of actD 0.12 nM", "setting": "HCT116/R2 [3]; oxaliplatin 40 μM", "result": 72.3, "unit": "%"}, {"measurement": "Cytotoxicity of oxaliplatin* in presence of actD 0.36 nM", "setting": "HCT116/R2 [3]; oxaliplatin 40 μM", "result": 78.7, "unit": "%"}, {"measurement": "Cytotoxicity of oxaliplatin", "setting": "HCT116/R1 [1]; oxaliplatin 1.25 μM", "result": 17.2, "unit": "%"}, {"measurement": "Cytotoxicity of oxaliplatin* in presence of actD 0.04 nM", "setting": "HCT116/R1 [1]; oxaliplatin 1.25 μM", "result": 12.2, "unit": "%"}, {"measurement": "Cytotoxicity of oxaliplatin* in presence of actD 0.12 nM", "setting": "HCT116/R1 [1]; oxaliplatin 1.25 μM", "result": 22.6, "unit": "%"}, {"measurement": "Cytotoxicity of oxaliplatin* in presence of actD 0.36 nM", "setting": "HCT116/R1 [1]; oxaliplatin 1.25 μM", "result": 24.9, "unit": "%"}, {"measurement": "Cytotoxicity of oxaliplatin", "setting": "HCT116/R1 [1]; oxaliplatin 2.5 μM", "result": 17.6, "unit": "%"}, {"measurement": "Cytotoxicity of oxaliplatin* in presence of actD 0.04 nM", "setting": "HCT116/R1 [1]; oxaliplatin 2.5 μM", "result": 24.2, "unit": "%"}, {"measurement": "Cytotoxicity of oxaliplatin* in presence of actD 0.12 nM", "setting": "HCT116/R1 [1]; oxaliplatin 2.5 μM", "result": 35.7, "unit": "%"}, {"measurement": "Cytotoxicity of oxaliplatin* in presence of actD 0.36 nM", "setting": "HCT116/R1 [1]; oxaliplatin 2.5 μM", "result": 46.3, "unit": "%"}, {"measurement": "Cytotoxicity of oxaliplatin", "setting": "HCT116/R1 [1]; oxaliplatin 5 μM", "result": 47, "unit": "%"}, {"measurement": "Cytotoxicity of oxaliplatin* in presence of actD 0.04 nM", "setting": "HCT116/R1 [1]; oxaliplatin 5 μM", "result": 44.1, "unit": "%"}, {"measurement": "Cytotoxicity of oxaliplatin* in presence of actD 0.12 nM", "setting": "HCT116/R1 [1]; oxaliplatin 5 μM", "result": 47.4, "unit": "%"}, {"measurement": "Cytotoxicity of oxaliplatin* in presence of actD 0.36 nM", "setting": "HCT116/R1 [1]; oxaliplatin 5 μM", "result": 60.8, "unit": "%"}, {"measurement": "Cytotoxicity of oxaliplatin", "setting": "HCT116/R1 [1]; oxaliplatin 10 μM", "result": 67, "unit": "%"}, {"measurement": "Cytotoxicity of oxaliplatin* in presence of actD 0.04 nM", "setting": "HCT116/R1 [1]; oxaliplatin 10 μM", "result": 62.2, "unit": "%"}, {"measurement": "Cytotoxicity of oxaliplatin* in presence of actD 0.12 nM", "setting": "HCT116/R1 [1]; oxaliplatin 10 μM", "result": 65.5, "unit": "%"}, {"measurement": "Cytotoxicity of oxaliplatin* in presence of actD 0.36 nM", "setting": "HCT116/R1 [1]; oxaliplatin 10 μM", "result": 66.4, "unit": "%"}, {"measurement": "Cytotoxicity of oxaliplatin", "setting": "HCT116/R1 [1]; oxaliplatin 20 μM", "result": 65.8, "unit": "%"}, {"measurement": "Cytotoxicity of oxaliplatin* in presence of actD 0.04 nM", "setting": "HCT116/R1 [1]; oxaliplatin 20 μM", "result": 65.1, "unit": "%"}, {"measurement": "Cytotoxicity of oxaliplatin* in presence of actD 0.12 nM", "setting": "HCT116/R1 [1]; oxaliplatin 20 μM", "result": 68.7, "unit": "%"}, {"measurement": "Cytotoxicity of oxaliplatin* in presence of actD 0.36 nM", "setting": "HCT116/R1 [1]; oxaliplatin 20 μM", "result": 68.9, "unit": "%"}, {"measurement": "Oxaliplatin resistance (fold/parental line)", "setting": "HCT116/Rev1", "result": 1, "unit": "fold/parental line"}, {"measurement": "Oxaliplatin resistance (fold/parental line)", "setting": "HCT116/S (parental)", "result": 1, "unit": "fold/parental line"}, {"measurement": "Oxaliplatin resistance (fold/parental line)", "setting": "SW48/S", "result": 1, "unit": "fold/parental line"}, {"measurement": "Oxaliplatin resistance (fold/parental line)", "setting": "HCT116/Rev2", "result": 17, "unit": "fold/parental line"}, {"measurement": "Oxaliplatin resistance (fold/parental line)", "setting": "SW480/R", "result": 63, "unit": "fold/parental line"}, {"measurement": "Oxaliplatin resistance (fold/parental line)", "setting": "SW48/R1", "result": 26, "unit": "fold/parental line"}, {"measurement": "Oxaliplatin resistance (fold/parental line)", "setting": "SW620/R", "result": 22, "unit": "fold/parental line"}, {"measurement": "Oxaliplatin resistance (fold/parental line)", "setting": "SW620/S", "result": 1, "unit": "fold/parental line"}, {"measurement": "Oxaliplatin resistance (fold/parental line)", "setting": "SW48/R2", "result": 73, "unit": "fold/parental line"}, {"measurement": "Oxaliplatin resistance (fold/parental line)", "setting": "HCT116/R1 [4]", "result": 28, "unit": "fold/parental line"}]}]}
